{
  "sequences": {"note": "Sequences of proteins named here, by UniProt entry; tags and fusion partners are left off. Residues count along the entry.", "UniProt Q9GZT9, 181-426": "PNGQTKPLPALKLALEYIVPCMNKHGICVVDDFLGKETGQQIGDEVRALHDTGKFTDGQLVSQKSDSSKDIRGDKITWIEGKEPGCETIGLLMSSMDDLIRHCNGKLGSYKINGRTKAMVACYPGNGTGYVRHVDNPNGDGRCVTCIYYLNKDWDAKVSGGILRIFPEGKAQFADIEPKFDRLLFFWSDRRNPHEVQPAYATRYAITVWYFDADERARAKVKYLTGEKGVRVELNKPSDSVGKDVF"},
  "source": "paper PMC5802278",
  "about": "“Molecular and cellular mechanisms of HIF prolyl hydroxylase inhibitors in clinical trials” (Chemical Science, 2017)",
  "assay_type_in_all_cases": "biochemical",
  "key": {"[1]": {"biological_target": "T1, PHD2 (Homo sapiens, UniProt Q9GZT9)", "test": "LC-MS based RapidFire PHD2 hydroxylation assay"}, "[2]": {"biological_target": "T1, PHD2", "test": "MALDI-TOF MS PHD hydroxylation assay", "method": "Protocols for in vitro PHD1–3 MALDI-TOF MS hydroxylation assays[30] and for the AlphaScreen histone demethylase assays[44] were as reported.\nAlthough sharing homologous C-terminal catalytic domains, the N-terminal regions of PHD1–3 vary. […] In vitro inhibition assays of the clinical trial PHD inhibitors (and some of their structurally related analogue) against 1 μM recombinant human PHD1–3 were performed.\nFig. S11. In vitro PHD isoform selectivity profiling of PHD inhibitors. Inhibition of PHD inhibitors against human PHD125 -3 as assayed by MALDI-TOF MS (the protocol is described in Chan et al. ). Eight concentrations were used to obtained dose-response curve for each compound. Data points presented in the graph are mean with standard deviation, n=3. IC50 […]\n(1 picture or pasted object on this page, not shown here)"}, "[3]": {"biological_target": "PHD2 catalytic domain (residues 181-426) (Homo sapiens, UniProt Q9GZT9)", "test": "AlphaScreen antibody based PHD2 assay (HIF-1α CODD peptide hydroxylation)", "set-up": "10 nM PHD2 (catalytic domain, residues 181–426); made in house", "method": "AlphaScreen antibody based PHD assays were as reported[39] using 384-well white ProxiPlates™ (PerkinElmer). Reactions were performed in 50 mM HEPES buffer pH 7.5, 0.01% Tween-20 and 0.1% BSA in a final volume of 10 μL at room temperature. […] The luminescence signal was measured using an Envision (Perkin Elmer) plate reader. Data were analyzed utilizing GraphPad prism."}},
  "data": [
    {"smiles": "O=C(O)CNC(=O)c1ncc(-c2cccc(Cl)c2)cc1O", "note": "[Vadadustat]", "values": [
      {"measurement": "IC50", "setting": "[1]", "result": 1.33, "unit": "µM"},
      {"measurement": "IC50", "setting": "[2]", "result": 2.3, "unit": "µM"},
      {"measurement": "IC50", "setting": "[3]", "result": 0.029, "unit": "µM"}
    ]}
  ]
}
